This passage reports Activity results from ChEMBL document CHEMBL6134906, “Design, Synthesis, and Biological Evaluation of Selective STING Synergists That Enhance cGAMP-STING Pathway Activation without Inherent Agonist Activity” (J Med Chem, 2025).

A short description of data set [1]: Toxicity in male C57BL/6 mouse assessed as effect on lung architecture at 20 to 100 mg/kg, ip administered for 7 days by H and E staining based analysis. The format is organism-based. The note with it: in vivo, 168 h, dose 20-100 mg/kg, time 7 day.
A short description of data set [2]: Cytotoxicity against human PBMC cells assessed as increase in CXCL-10 mRNA level at 25 uM incubated for 4 hrs in presence of cGAMP by RT-qPCR analysis. Type of data set: toxicity, cell-based.
Data set [3] in a line: Toxicity in male C57BL/6 mouse assessed as creatine kinase level at 100 mg/kg, ip administered for 7 days by biochemical analysis (reference value: 312.6 U/L). The note with it: in vivo, 168 h, time 7 day. Type of data set: organism-based.
Data set [4] is described as follows: Toxicity in male C57BL/6 mouse assessed as effect on spleen architecture at 20 to 100 mg/kg, ip administered for 7 days by H and E staining based analysis. Type of data set: organism-based. Particulars: in vivo, 168 h, dose 20-100 mg/kg, time 7 day.
Data set [5] in a line: Toxicity in male C57BL/6 mouse assessed as nephrotoxic tubular degeneration at 100 mg/kg, ip administered for 7 days by H and E staining based analysis. The format is organism-based. Particulars: in vivo, 168 h, time 7 day.
A short description of data set [6]: Toxicity in male C57BL/6 mouse assessed as alanine aminotransferase level at 100 mg/kg, ip administered for 7 days by biochemical analysis (reference value: 41.6 U/L). The format is organism-based. Particulars: in vivo, 168 h, time 7 day.
A short description of data set [7]: Toxicity in male C57BL/6 mouse assessed as effect on liver weight at 20 to 100 mg/kg, ip administered for 7 days. Type of data set: organism-based. The note with it: in vivo, 168 h, dose 20-100 mg/kg, time 7 day.
A short description of data set [8]: Toxicity in male C57BL/6 mouse assessed as creatinine level at 100 mg/kg, ip administered for 7 days by biochemical analysis (reference value: 65.0 micromol/L). Type of data set: organism-based. Particulars: in vivo, 168 h, time 7 day.
Data set [9] has as its target T1, Stimulator of interferon genes protein (Mus musculus) (UniProt Q3TBT3).
T1 sequence (whole entry): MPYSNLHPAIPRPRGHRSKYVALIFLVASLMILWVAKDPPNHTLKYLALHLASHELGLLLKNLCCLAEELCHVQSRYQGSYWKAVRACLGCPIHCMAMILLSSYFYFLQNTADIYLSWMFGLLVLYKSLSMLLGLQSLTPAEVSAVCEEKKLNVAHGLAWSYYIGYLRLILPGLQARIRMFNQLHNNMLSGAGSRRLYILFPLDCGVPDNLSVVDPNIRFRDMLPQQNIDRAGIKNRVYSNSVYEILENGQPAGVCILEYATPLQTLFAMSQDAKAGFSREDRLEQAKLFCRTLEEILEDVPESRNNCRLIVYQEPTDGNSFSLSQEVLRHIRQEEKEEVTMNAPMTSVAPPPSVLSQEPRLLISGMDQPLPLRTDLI
Put plainly: Potentiation of cGAMP-induced mouse STING pathway activation expressed in HEK293 cells assessed as leftward shift in cGAMP agonist curve at 33 to 100 uM incubated for 48 hrs by QUANTI-Blue solution based spectrophotometric analysis. Particulars: filed as agonist, dose 33-100 µM. The format is cell-based.

Data set [10] is described as follows: Toxicity in male C57BL/6 mouse assessed as signs of distress at 20 to 100 mg/kg, ip administered for 7 days. The note with it: in vivo, 168 h, dose 20-100 mg/kg, time 7 day. The format is organism-based.
The nature of data set [11]: Toxicity in male C57BL/6 mouse model implanted with mouse B16-F10 cells assessed as effect on body weight at 20 mg/kg, ip co-administered with cGAMP on days 7, 10 and 13. Type of data set: organism-based. The note with it: in vivo, 168 h, time 7 day.
Data set [12] can be described thus: Toxicity in male C57BL/6 mouse assessed as aspartate aminotransferase level at 20 mg/kg, ip administered for 7 days by biochemical analysis (reference value: 136.8 U/L). Type of data set: organism-based. The note with it: in vivo, 168 h, time 7 day.
Data set [13] is described as follows: Toxicity in male C57BL/6 mouse assessed as creatinine level at 20 mg/kg, ip administered for 7 days by biochemical analysis (reference value: 65.0 micromol/L). Type of data set: organism-based. Particulars: in vivo, 168 h, time 7 day.
In data set [14] the target is T1, Stimulator of interferon genes protein (Mus musculus). As to the kind of experiment: Potentiation of diABZI-induced mouse STING pathway activation expressed in HEK293 cells assessed as SEAP production at 50 uM incubated for 48 hrs by QUANTI-Blue solution based spectrophotometric analysis. The format is cell-based.
The nature of data set [15]: Toxicity in male C57BL/6 mouse assessed as effect on liver architecture at 20 to 100 mg/kg, ip administered for 7 days by H and E staining based analysis. Type of data set: organism-based. Particulars: in vivo, 168 h, dose 20-100 mg/kg, time 7 day.
The nature of data set [16]: Toxicity in male C57BL/6 mouse assessed as alanine aminotransferase level at 20 mg/kg, ip administered for 7 days by biochemical analysis (reference value: 41.6 U/L). The format is organism-based. The note with it: in vivo, 168 h, time 7 day.
The nature of data set [17]: Toxicity in male C57BL/6 mouse assessed as uric acid level at 20 mg/kg, ip administered for 7 days by biochemical analysis (reference value: 0.13 mmol/L). The format is organism-based. Particulars: in vivo, 168 h, time 7 day.
The nature of data set [18]: Toxicity in male C57BL/6 mouse model implanted with mouse B16-F10 cells assessed as effect on body weight at 20 mg/kg, ip administered on days 7, 10 and 13. Type of data set: organism-based. Particulars: in vivo, 168 h, time 7 day.
Data set [19] can be described thus: Toxicity in male C57BL/6 mouse assessed as effect on heart weight at 20 to 100 mg/kg, ip administered for 7 days. The note with it: in vivo, 168 h, dose 20-100 mg/kg, time 7 day. The format is organism-based.
Data set [20] in a line: Cytotoxicity against human PBMC cells assessed as increase in IFN-beta mRNA level at 25 uM incubated for 4 hrs in presence of cGAMP by RT-qPCR analysis. Type of data set: toxicity, cell-based.
A short description of data set [21]: Toxicity in male C57BL/6 mouse assessed as effect on kidney weight at 20 to 100 mg/kg, ip administered for 7 days. Type of data set: organism-based. Particulars: in vivo, 168 h, dose 20-100 mg/kg, time 7 day.

The source made the active and inactive calls. No cut-off for these calls is given here.

With `CCOC(=O)Cn1c2ccc(C)cc2c(=O)c2cc(OC)c(C)c(C)c21`, the Activity entry in data set [1] is given as “Non-toxic”; in data set [2], “Toxic”; in [3], 327.2 U/L; in data set [4], “Non-toxic”; in data set [5] it was “Non-toxic”; in data set [6], 52.2 U/L. Further, the Activity result was “Non-toxic” in data set [7]; 66.6 µmol/L in [8]; “Non-toxic” in data set [10]; “Non-toxic” in data set [11]; 148.4 U/L in data set [12]; 69.8 µmol/L in data set [13]. Moreover, the Activity entry in data set [15] is reported as “Non-toxic”; in data set [16] it was 46.8 U/L; in data set [17] it was 0.13 mmol/L; in data set [18] it was “Non-toxic”; in data set [19], “Non-toxic”; in [20] it was “Toxic”. Also, the Activity entry in [21] was “Non-toxic”. In data set [9], the outcome was Active. For the same molecule, the result in data set [14] was inactive.
